The text below walks through data of PubChem BioAssay AID492972 (The Scripps Research Institute Molecular Screening Center, 2010).

Sequences of proteins named here, by UniProt entry; tags and fusion partners are left off.
UniProt Q15102, whole entry: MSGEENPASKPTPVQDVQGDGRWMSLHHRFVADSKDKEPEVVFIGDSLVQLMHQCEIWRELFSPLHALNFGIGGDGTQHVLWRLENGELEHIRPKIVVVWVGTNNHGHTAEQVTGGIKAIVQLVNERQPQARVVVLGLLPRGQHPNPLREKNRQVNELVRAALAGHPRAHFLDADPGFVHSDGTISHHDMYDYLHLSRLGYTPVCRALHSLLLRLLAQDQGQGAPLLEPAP

Only a part is listed here, and it is no random draw. Some results for these compounds are left out of this collection, so the calls shown say nothing about other tests. Calls of active or inactive are those of the source.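 The calls were made as follows: active = inhibition above the screen-wide average of all tested compounds plus 3 SD (cut at about 25% in these data); inactive = the rest.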

The target in the experiment is Platelet-activating factor acetylhydrolase IB subunit alpha1 (Homo sapiens) (UniProt Q15102). Put plainly: PAFAH1B3 enzyme inhibitors, primary screen, biochemical, fluorescence polarization, human (AID 492972).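 Also: 0% = enzyme with DMSO only and 100% = wells lacking PAFAH1B3 protein.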 As to conditions: recombinant PAFAH1B3, FP-rhodamine probe, at 3.39 µM, stronger effect = higher value. A general note: Polarisation of emitted light reports the rotation of a fluorescent probe.
In general, inhibition refers to the change of the read-out against control, counted positive when it falls. In the case of `CN1[C@@H]2CC[C@H]1CC(OC(=O)C(O)(c1ccccc1)c1ccccc1)C2` (stereo not given in full), the inhibition was inactive: 6.95%.

`O=C(NCC1(N2CCCCC2)CCCCC1)c1cc([N+](=O)[O-])ccc1Cl`: the inhibition was inactive: 7.61%.

With `Cc1ccc(C(=O)NCC2(N3CCCCC3)CCCCC2)cc1`, the inhibition is inactive: 0.56%.

As to `CC(C)N1C(=O)CC2(CCN(CCOC(=O)C(O)(c3ccccc3)c3ccccc3)CC2)C1=O`, the inhibition was inactive: 6.21%.

In the case of `CCN(CC)CC(C)C(C)OC(=O)C(O)(c1ccccc1)c1ccccc1` (stereo not given), the inhibition was inactive: -1.99%.

`COc1cc(SC)ccc1C(=O)NCC1(N(C)C)CCCCC1`: the inhibition was inactive: 8.13%.

Turning to `Cc1ccccc1C(=O)NCC1(N2CCCCC2)CCCCC1`, the inhibition is inactive: -2.9%.

On to `CN(C)C1CCCC1OC(=O)C(O)(c1ccccc1)c1ccccc1` (stereo not given), for which the inhibition is inactive: 5.38%.

Consider `CN(C)c1ccc(C(=O)NCC2(N(C)C)CCCCC2)cc1`, for which the inhibition was inactive: 3.53%.

`Cc1cc(C(=O)NCC2(N3CCCCC3)CCCCC2)ccc1[N+](=O)[O-]`: the inhibition was inactive: -2.38%.

On to `CCN1CCCC(OC(=O)C2(O)c3ccccc3C=Cc3ccccc32)C1` (stereo not given), for which the inhibition is inactive: -1%.

With `O=C(NCC1(N2CCCCC2)CCCCC1)c1cccc(Br)c1`, the inhibition is inactive: -4.06%.

`COc1ccc(C(=O)NCC2(N(C)C)CCCCC2)cc1`: the inhibition was inactive: 3.93%.

Take `C=CCN1CCN(CCOC(=O)C(O)(c2ccccc2)c2ccccc2)CC1`: the inhibition was inactive: 3.53%.

With `O=C(NCC1(N2CCCCC2)CCCCC1)c1cc(F)c(F)cc1Cl`, the inhibition was inactive: 6.23%.

`COc1cc(C(=O)NCC2(N(C)C)CCCCC2)c([N+](=O)[O-])cc1OC`: the inhibition was inactive: 15.1%.

Regarding `CN(C)C1(CNC(=O)c2ccc(Br)cc2)CCCCC1`, the inhibition is inactive: 4.45%.

Take `O=C(NCC1(N2CCCCC2)CCCCC1)c1cccc(Cl)c1`: the inhibition is inactive: 16.7%.

For the molecule `COc1cccc(C(=O)NCC2(N3CCCCC3)CCCCC2)c1`, the inhibition is inactive: 4.35%.

For `COc1ccc(Cl)cc1C(=O)NCC1(N(C)C)CCCCC1`, the inhibition is inactive: 8.09%.

`O=C(OC1CN2CCC1CC2)C(CO)(c1ccccc1)c1ccccc1` (stereo not given): the inhibition was inactive: -3.08%.

In the case of `CN(C)c1cccc(C(=O)NCC2(N(C)C)CCCCC2)c1`, the inhibition was inactive: -6.24%.

Regarding `CC(C)Oc1ccc(C(=O)NCC2(N(C)C)CCCCC2)cc1`, the inhibition was inactive: 7.81%.

Regarding `O=C(OCCN1CCCC1)C(O)(c1ccccc1)c1ccccc1`, the inhibition was inactive: 2.94%.

In the case of `COc1ccc(Br)c(C(=O)NCC2(N3CCCCC3)CCCCC2)c1`, the inhibition is inactive: -3.88%.
